Reference: patent US20230286995A1, “METABOLICALLY STABLE PYRIMIDINYL DIHYDROQUINOXALINONES AS TUBULIN POLYMERIZATION INHIBITORS” (UNIVERSITY OF TENNESSEE RESEARCH FOUNDATION, priority 2022, published 2023)

Key:
[1] = rats
A375/TxR cells = assay: Cell apoptosis analysis (Annexin V-FITC/PI); assay type: cell-based, human; conditions: 2 nM, 24 h; control 9%
A375 = assay: Cytotoxicity assay (MTS, 72 h); conditions: Homo sapiens;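 further: compounds tested from 0.1 nM up to 3 µM in four replicate wells, with absorbance read at 490 nm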
MDA-MB-231/VxR = assay: Cytotoxicity assay (MTS, 72 h); assay type: cell-based; conditions: Homo sapiens, MDA-MB-231, 72 h, read-out: IC50 in Compound 17ya resistant MDA-MD-231/VxR cells

With COc1ccc2c(c1)NC(=O)CN2c1nc(C)nc2c1CCC2 [Compound 5m, 7-methoxy-4-(2-methyl-6,7-dihydro-5H-cyclopenta[d]pyrimidin-4-yl)-3,4-dihydroquinoxalin-2(1H)-one] the “tmax” value ([1]; Intravenous (2 mg/kg)) was 5.00 min, the “tmax” value ([1]; Oral (5 mg/kg)) was 22.5 min and the “percentage of apoptotic cells” value (A375/TxR cells) was 30%. The IC50 (A375; A-375, read-out: IC50 (nM) Melanoma A375) was 1.4 ± 0.2 nM and the IC50 (A375; A-375, read-out: IC50 ± SEM (nM) A375) was 1.1 ± 0.1 nM.
With CCNc1nc(N2CC(=O)Nc3cc(OC)ccc32)c2ncccc2n1 [Compound 5t, 4-(2-(ethylamino)pyrido[3,2-d]pyrimidin-4-yl)-7-methoxy-3,4-dihydroquinoxalin-2(1H)-one] the IC50 (MDA-MB-231/VxR) was 1.2 to 2.9 nM and the “percentage of apoptotic cells” value (A375/TxR cells) was 33%.

Where two headings read alike, the source gives them in different places.
